In PubChem BioAssay AID1508623 (National Center for Advancing Translational Sciences (NCATS), 2021):
The entries are a selection whose mix differs from that of the whole data set. Inconclusive results are not listed. Activity calls are given as the source filed them. Calls follow the shape of the dose curve; as a rule, active = well fitted inhibition curve with a large enough effect; inconclusive = small, poorly fitted or top-dose-only effect; inactive = no such curve, though single readings can be large or run the other way.

Test: Primary qHTS for Identification of Small Molecule Inhibitors of Huntingtin Promoter Activity; also: nearly all actives have a fitted effect of over 50% in size
Conditions: HEK293 HTT promoter firefly luciferase reporter (activity 0% = vehicle and -100% = no light), 24 h; at 57.5 µM (top of the series) unless noted
Excerpt: Assay Provider: Russell L. Margolis M.D.
Department Neurology, Johns Hopkins University School of Medicine, Baltimore, MD
Huntington's Disease (HD) is a neurodegenerative disorder caused by a CAG repeat expansion in exon 1 of huntingtin (HTT). While there are currently no disease-modifying treatments for HD, recent efforts have focused on development of nucleotide-based therapeutics to lower HTT expression. As an alternative to siRNA or oligonucleotide methods, we hypothesized that suppression of HTT expression might be accomplished by small molecules that either (1) directly decrease HTT expression by suppressing HTT promoter activity or (2) indirectly decrease HTT expression by increasing the promoter activity of HTT-AS, the gene antisense to HTT that appears to inhibit expression of HTT.
We developed and employed a high throughput screen for modifiers of HTT and HTT-AS promoter activity using luminescent reporter HEK293 cells; of the 52,041 compounds tested, we identified 898 replicable hits. We used a rigorous stepwise approach to assess compound toxicity and the capacity of the compounds to specifically lower huntingtin protein in 5 different cell lines, including HEK293 cells, HD lymphoblastoid cells, mouse primary neurons, HD iPSCs differentiated into cortical-like neurons, and HD hESCs. We found no compounds which were able to lower huntingtin without lowering cell viability in all assays, though the potential efficacy of a few compounds at non-toxic doses could not be excluded.
SEQUENCE No. (1, 2, 3, etc.); […] (e.g., Cells, Incubation, Reagent, etc.); VALUE and DESCRIPTION.
1; Reagent; 4 uL; 2,500 Hek293 luciferase reporter cells per wells
3; Compound; 23 nL; Control inhibitor / compound library
5; Reagent; 2.5 uL; Firefly Luc reagent; Dual-Glo Luciferase Reporter Assay System (Promega)
6; Time; 10 min; room temperature incubation
7; Detection; Luminescence; FLuc
NOTES (numbers refer to sequence above)
1; High-throughput screening, measuring luminescence from a Hek293 luciferase reporter, was performed in 1,536 well white-walled tissue-culture treated plates. 2,500 cells were plated in 4 µL of Opti-MEM per well using a Multidrop Combi Reagent Dispenser (ThermoFisher).
2; Assay plates were cultured for 24 hours.
3; Control inhibitor (PTC124; final concentration of 50 uM) and compound library (at final concentrations of 460 nM - 57.5 uM) were added to the assay plate using the Kalypsis Pintool Robotic System equipped with 1536 pinheads.
4; Cells were then incubated for 24 hours at 37 degrees C prior to luminescence measurements.
5; In all cases, luminescence was measured using the Dual-Glo Luciferase Reporter Assay System (Promega) following the manufacturer's instructions.
6; Room temperature incubation.
7; Luminescence signal was obtained using the PerkinElmer ViewLux plate reader. Results were normalized to vehicle control (0% activity) and zero RLU (-100% activity).

Structure (SMILES)	activity change, negative = inhibition
CN(C(=O)Cc1ccc(Cl)c(Cl)c1)[C@H]1CC[C@@]2(CCCO2)C[C@@H]1N1CCCC1	inactive: -1.3%
NC(=O)Nc1ccc([As](=O)(O)O)cc1	inactive: 0.601%
CCn1c(=O)n([C@@H]2CCN(CC3CCCCCCC3)C[C@@H]2CO)c2ccccc21	inactive: -2.68%
CCNC(C)Cc1ccc2c(c1)OCO2 (stereo not given)	inactive: -1.05% [at 116 µM]
CN(C(=O)Cc1ccccc1)[C@H]1CC[C@@]2(CCCO2)C[C@@H]1N1CCCC1	inactive: 10.7%
